# Measured fraction unbound values of organic chemicals

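OPERA's authors assembled the values from existing databases and did not measure them anew. One number stands for a compound and property, with no spread given. Method and conditions are not stated for these values. Where a salt, mixture or single isomer is drawn, the source does not say that exactly this form was tested. Unmarked limits or estimates from the upstream databases cannot be ruled out.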

The unbound fraction in human plasma runs from 0 (all bound) to 1 (all free). "–" marks a cell with nothing listed here.

structure (SMILES),name,fraction unbound
CC[C@@]1(O)C(=O)OCc2c1cc1n(c2=O)Cc2cc3c(N)cccc3nc2-1,9-Aminocamptothecin,0.004
CN(Cc1nc2c(N)nc(N)nc2nc1O)c1ccc(C(=O)N[C@@H](CCC(=O)O)C(=O)O)cc1,7-Hydroxymethotrexate,0.13
NC(=O)C1CO1 (centres undefined),Glycidamide,0.98
CCC[C@H](N[C@@H](C)C(=O)N1[C@H](C(=O)O)C[C@@H]2CCCC[C@@H]21)C(=O)OCC,Perindopril,0.4
CCc1ccc(O)c(C(C)(C)C)c1,2-tert-butyl-4-ethylphenol,0.0454
COC(=O)c1ccccc1C(=O)O,Monomethyl phthalate,0.372
COC1=C(OC)C(=O)C(CCCCCCCCCCO)=C(C)C1=O,Idebenone,0.1
Oc1ccc(Cc2ccccc2O)cc1,–,0.0426
CCOC(=O)C1=C[C@]2(CC)CCCN3CCc4c(n1c1ccccc41)[C@@H]32,Vinpocetine,0.34
COC(=O)CCCC(=O)OC,Dimethyl glutarate,0.6989
Cn1cnc2c1c(=O)[nH]c(=O)n2C,Theobromine,0.955
CCN[C@H]1C[C@H](C)S(=O)(=O)c2sc(S(N)(=O)=O)cc21,Dorzolamide,0.7
CCCN(CC)C(CC)C(=O)Nc1c(C)cccc1C (centres undefined),Etidocaine,0.06
CC(C)[C@H](N)C(=O)OCC(CO)OCn1cnc2c(=O)nc(N)[nH]c21 (stereo partly drawn),Valganciclovir,0.985
COC(=O)c1cccc(C)c1S(=O)(=O)NC(=O)Nc1nc(OCC(F)(F)F)nc(N(C)C)n1,Triflusulfuron-methyl,0.3293
CO[C@@]1(NC(=O)Cc2cccs2)C(=O)N2C(C(=O)O)=C(COC(N)=O)CS[C@@H]21,Cefoxitin,0.6175
CC(=O)N(O)CCCCCNC(=O)CCC(=O)N(O)CCCCCNC(=O)CCC(=O)N(O)CCCCCN,Deferoxamine,0.9
NC(=O)c1cnccn1,Pyrazinamide,0.9
CSc1ccc(/C=C2/C(C)=C(CC(=O)O)c3cc(F)ccc32)cc1,Sulindac sulfide,0.06
CN1[C@@H]2CC[C@H]1C[C@@H](OC(=O)c1c[nH]c3ccccc13)C2,Tropisetron,0.3
CCN[C@H]1CN(CCCOC)S(=O)(=O)c2sc(S(N)(=O)=O)cc21,Brinzolamide,0.4
CCOc1ccc2ccccc2c1C(=O)N[C@@H]1C(=O)N2[C@@H]1SC(C)(C)[C@@H]2C(=O)O,Nafcillin,0.1243
O=C1OC(c2ccc(O)cc2)(c2ccc(O)cc2)c2ccccc21,Phenolphthalein,0.03116
C=CCOC(Cn1ccnc1)c1ccc(Cl)cc1Cl (centres undefined),Imazalil,0.02993
CC1(C)S[C@@H]2[C@H](NC(=O)[C@H](C(=O)O)c3ccsc3)C(=O)N2[C@H]1C(=O)O,Ticarcillin,0.5183
CCCS(=O)c1ccc2[nH]c(NC(=O)OC)nc2c1 (centres undefined),Albendazole oxide,0.3
CC1(C)O[C@@H]2[C@@H](CO[C@@]3(COS(N)(=O)=O)OC(C)(C)O[C@@H]23)O1,Topiramate,0.85
CCCCOC(=O)c1ccccc1,Butyl benzoate,0.313
CC(=O)Nc1c(I)c(NC(C)=O)c(I)c(C(=O)O)c1I,Diatrizoic acid,0.975
C#CCN[C@@H]1CCc2ccccc21,Rasagiline,0.09
CC(=O)[C@H]1CC[C@H]2[C@@H]3C=CC4=CC(=O)CC[C@@]4(C)[C@@H]3CC[C@]12C,Dydrogesterone,0.03
CCCOC(=O)NCCCN(C)C.Cl,Propamocarb hydrochloride,0.8426
ClCCl,Dichloromethane,0.7057
O=C[C@H](O)[C@@H](O)[C@H](O)[C@H](O)CO,D-Glucose,0.7
CCn1nc(C(=O)O)c(=O)c2cc3c(cc21)OCO3,Cinoxacin,0.36
COc1cccc(OC)c1C(=O)N[C@@H]1C(=O)N2[C@@H]1SC(C)(C)[C@@H]2C(=O)O,Methicillin,0.475
Cc1ccc2ncccc2c1,6-methylquinoline,0.101
CN1CCN(C(c2ccccc2)c2ccccc2)CC1,Cyclizine,0.4
CCC(=C(c1ccc(O)cc1)c1ccc(OCCN(C)C)cc1)c1ccccc1,4-hydroxytamoxifen,0.0153
C=C1C[C@]23C[C@@]1(O)CC[C@H]2[C@@]12C=C[C@H](O)[C@@](C)(C(=O)O1)[C@H]2[C@@H]3C(=O)O,Gibberellic acid,0.24
CN1CCC(=C2c3ccccc3CCc3sccc32)CC1,Pizotyline,0.09
CCN(CC)CCNC(=O)c1cc(Br)c(N)cc1OC,Bromopride,0.6
CS(O)(=O)=O.CC(C)(C)c1cc(/C=C2SC(=N)NC2=O)cc(c1O)C(C)(C)C,–,0.00678
c1ccc(CC2=NCCN2)cc1,Tolazoline,0.77
CCCn1c(=O)[nH]c(=O)c2[nH]cnc21,Enprofylline,0.4253
c1ccc(Nc2ccccc2)cc1,Diphenylamine,0.00325
C=CC[N+]1([C@H]2C[C@H]3[C@@H]4CC[C@H]5C[C@H](O)[C@@H](N6CCOCC6)C[C@]5(C)[C@H]4CC[C@]3(C)[C@H]2OC(C)=O)CCCC1,Rocuronium,0.58
Nc1ccc2c(c1)C(=O)c1ccccc1C2=O,2-aminoanthraquinone,0.0305
Cl.O=C(c1ccc(OCCN2CCCCC2)cc1)c1c(-c2ccc(O)cc2)sc2cc(O)ccc12,Raloxifene hydrochloride,0.0129

A selection of 5 entries from above:

| structure (SMILES) | name | fraction unbound |
|---|---|---|
| CCc1ccc(O)c(C(C)(C)C)c1 | 2-tert-butyl-4-ethylphenol | 0.0454 |
| CCC[C@H](N[C@@H](C)C(=O)N1[C@H](C(=O)O)C[C@@H]2CCCC[C@@H]21)C(=O)OCC | Perindopril | 0.4 |
| CCC(=C(c1ccc(O)cc1)c1ccc(OCCN(C)C)cc1)c1ccccc1 | 4-hydroxytamoxifen | 0.0153 |
| O=C[C@H](O)[C@@H](O)[C@H](O)[C@H](O)CO | D-Glucose | 0.7 |
| CC(=O)N(O)CCCCCNC(=O)CCC(=O)N(O)CCCCCNC(=O)CCC(=O)N(O)CCCCCN | Deferoxamine | 0.9 |

Data: OPERA 2.9 data sets, kmansouri/OPERA on GitHub.